## Apparent affinities of Ab-14 variants for a coronavirus HR2 peptide

The measurements come from Engelhart et al. 2022 (doi:10.1038/s41597-022-01779-4) through the FLAb antibody collection.

Target: peptide PDVDLGDISGINAS, taken from heptad repeat 2 (HR2) of SARS-CoV-2 spike.

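The parent was found by panning a naive human phage display library on the peptide. AAYL50 was designed without a model: most single CDR substitutions and a random sample of double and triple ones. The scFvs were displayed on barcoded MATa yeast, the peptide on MATalpha yeast. After mating in shaken culture at 30 °C for 16 h, diploids were selected and their barcode pairs sequenced. The ratio of observed to expected reads was calibrated, replicate by replicate, on BCL2-family standards whose Kd was known from biolayer interferometry. Mating was done three times.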

Ab-14 is the parent antibody, in scFv form: VH, then three GGGGS repeats, then VL. The heavy chain is unchanged in all variants.
VH: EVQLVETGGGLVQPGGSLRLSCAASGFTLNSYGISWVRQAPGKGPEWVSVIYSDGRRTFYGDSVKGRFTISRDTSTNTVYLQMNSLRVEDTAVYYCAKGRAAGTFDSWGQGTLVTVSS
VL: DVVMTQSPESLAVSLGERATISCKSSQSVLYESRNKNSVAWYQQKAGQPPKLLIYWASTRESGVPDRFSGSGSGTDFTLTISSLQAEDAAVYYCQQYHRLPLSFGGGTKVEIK

Substitutions are numbered in sequence along the VL above, starting at 1 (not Kabat). Every variant below is changed at S25 of the VL (sequential numbering). Each Kd is an estimate from the mating assay, the geometric mean of the replicates in which the pair was seen; lower is stronger. An entry "nd" has no value in the source: the pair was not observed among the diploids in any replicate. This suggests poor binding but is not conclusive. Nonspecific signal, from three strains lacking the peptide, appeared in 18% of pairings of library AAYL50, centred on 15 µM (5% of these signals below 970 nM); values are not corrected for it. For each scFv, signals with the empty controls are counted beside the result.

* S25M+S26L+R99C: 140 nM (3 of 3 replicates; controls 1 of 9)
* S25L+S62K: 810 pM (3 of 3 replicates; controls 3 of 9)
* S25E+A57W+Q95S: 140 µM (1 of 3 replicates; controls 4 of 9)
* S25E+S28R+Q95R: 49 µM (3 of 3 replicates; controls 4 of 9)
* S25G+V29Y+R34V: 13 nM (3 of 3 replicates; controls 1 of 9)
* S25K+E61D+H98I: 320 nM (3 of 3 replicates; controls 1 of 9)
* S25I+S33C+N35A: 250 nM (3 of 3 replicates; controls 0 of 9)
* S25F+E32I+Q95S: 35 nM (3 of 3 replicates; controls 6 of 9)
* K24Q+S25I+T59G: 25 nM (3 of 3 replicates; controls 0 of 9)
* S25F+R34H+L100N: 2.9 nM (3 of 3 replicates; controls 1 of 9)
* S25D+S26K+S103W: 16 nM (3 of 3 replicates; controls 1 of 9)
* S25P+S62N+P101I: 1.2 µM (3 of 3 replicates; controls 3 of 9)
* S25H+R60Y: nd (0 of 3 replicates; controls 1 of 9)
* S25Y+N37Q+A57S: 26 nM (3 of 3 replicates; controls 1 of 9)
* S25D+S58W+T59W: nd (0 of 3 replicates; controls 0 of 9)
* S25C+S28F+L102C: 12 µM (2 of 3 replicates; controls 1 of 9)
* S25G+R34Q: 10 nM (3 of 3 replicates; controls 3 of 9)
* S25I+N37T+S58D: 3.9 nM (3 of 3 replicates; controls 0 of 9)
* S25F+L100K: nd (0 of 3 replicates; controls 1 of 9)
* S25G: 1.6 µM (3 of 3 replicates; controls 2 of 9)
* S25N+L30N+E32G: 32 nM (3 of 3 replicates; controls 0 of 9)
* S25W+V39S+A57P: nd (0 of 3 replicates; controls 1 of 9)
* S25Q+S28H+K36Y: nd (0 of 3 replicates; controls 0 of 9)
* S25H+R99W+L102Q: nd (0 of 3 replicates; controls 0 of 9)
* S25C+A57Y: nd (0 of 3 replicates; controls 2 of 9)
* S25V+N37H+T59Y: 5.2 nM (3 of 3 replicates; controls 1 of 9)
* S25M+S33M+E61C: 2.6 nM (3 of 3 replicates; controls 6 of 9)
* S25L+A57Y: 370 nM (3 of 3 replicates; controls 4 of 9)
* S25R+Q95D+S103G: nd (0 of 3 replicates; controls 1 of 9)
* S25W+Q95G+L102K: nd (0 of 3 replicates; controls 0 of 9)
* S25P+A57V+L102I: 49 µM (3 of 3 replicates; controls 7 of 9)
* K24Q+S25I+Q95E: 2.3 nM (3 of 3 replicates; controls 1 of 9)
* S25A+Q27C+A57Q: 11 µM (1 of 3 replicates; controls 0 of 9)
* S25Y+P101H+L102G: nd (0 of 3 replicates; controls 1 of 9)
* S25Y+P101K: nd (0 of 3 replicates; controls 0 of 9)
* S25R+S58C+H98A: 6.2 µM (1 of 3 replicates; controls 0 of 9)
* S25Q: 32 nM (3 of 3 replicates; controls 2 of 9)
* S25A+N37K+S62M: 71 nM (3 of 3 replicates; controls 3 of 9)
* S25K+R34E+A40P: nd (0 of 3 replicates; controls 4 of 9)
* S25K+S26I+S28I: 2.8 mM (1 of 3 replicates; controls 0 of 9)
* S25R+Q27K+W56T: 220 nM (3 of 3 replicates; controls 1 of 9)
* K24N+S25Y+Y97P: 120 µM (1 of 3 replicates; controls 0 of 9)
* S25P+A57V+S58G: nd (0 of 3 replicates; controls 0 of 9)

Excerpt, the first 7 entries:

changes,Kd (apparent),replicates with signal,empty controls
S25M+S26L+R99C,140 nM,3 of 3,1 of 9
S25L+S62K,810 pM,3 of 3,3 of 9
S25E+A57W+Q95S,140 µM,1 of 3,4 of 9
S25E+S28R+Q95R,49 µM,3 of 3,4 of 9
S25G+V29Y+R34V,13 nM,3 of 3,1 of 9
S25K+E61D+H98I,320 nM,3 of 3,1 of 9
S25I+S33C+N35A,250 nM,3 of 3,0 of 9